The list shows a part of the results, in another mix than the full data. Activity calls are given as the source filed them.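 The calls were made as follows: active = inhibition above a per-plate limit, mean inhibition of low control wells plus 3 SD (cut at about 25% in these data); inactive = the rest.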
The compounds below were run against ADP-ribosylation factor GTPase-activating protein 1 (Rattus norvegicus) (UniProt Q62848) (assay: blockers of ARFGAP1-stimulated ARF1 GTP hydrolysis – biochemical, fluorescence polarization, GDP tracer, primary screen (AID 651572;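 also: 0% = DMSO wells with enzyme and 100% = wells lacking Arfgap1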)). Conditions: GDP FP detection, at 16.5 µM, active compounds read high.
Summary of the method: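 Repeats: one replicate per compound; assay system: rat Arfgap1 catalytic domain, aa 1-136; times: enzyme reaction 120 min at 25 °C after 20 min preincubation; detection: FP of antibody-bound GDP Alexa 633 tracer, ex 620/em 688 nm; benchmarks: high control wells lacking Arfgap1, low control full reaction with DMSO; reagent: human ARF1(Δ1-17)-GTP substrate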

By UniProt entry, the sequences of proteins in these tests, tags left out. Residues count along the entry.
UniProt Q62848, 1-136 limits assumed: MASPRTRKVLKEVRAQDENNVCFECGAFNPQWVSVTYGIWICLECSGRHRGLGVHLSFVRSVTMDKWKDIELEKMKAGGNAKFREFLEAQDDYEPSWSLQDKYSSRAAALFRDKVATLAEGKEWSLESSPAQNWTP

Compound	inhibition
COc1cc(OC)cc(C(=O)NCC2(N3CCCCC3)CCCCC2)c1	inactive: -18.2%
Cc1ccc(C(=O)NCC2(N3CCCCC3)CCCCC2)o1	inactive: -2.19%
Fc1ccccc1NC1CCN(Cc2ccccc2)CC1	inactive: -1.94%
Cc1ccc(NC2(C#N)CCN(Cc3ccccc3)CC2)cc1	inactive: -0.15%
Cc1ccccc1NC1(C#N)CCN(Cc2ccccc2)CC1	inactive: -2.04%
CC(C)(C)n1nnnc1C(c1ccnc2ccccc12)N1CCC(n2c(=O)[nH]c3ccccc32)CC1 (stereo not drawn)	inactive: -14.7%
CCN1CCC(Nc2cccc(F)c2)CC1	inactive: 2.41%
COc1ccc(C(c2nnnn2C2CCCCC2)N2CCC(n3c(=O)[nH]c4ccccc43)CC2)cc1 (stereo not drawn)	inactive: 18.1%
O=C(NCC1(N2CCCCC2)CCCCC1)c1ccco1	inactive: -1.94%
Cn1c(=O)[nH]cc(N(CCCl)CCCl)c1=O	inactive: -0.33%
CN(C)c1ccc(C(=O)NCC2(N3CCCCC3)CCCCC2)cc1	inactive: -1.04%
CCOc1ncccc1C(=O)NCC1(N2CCOCC2)CCCCC1	inactive: -10.6%
CN1CCC(Nc2ccc(F)c(Cl)c2)CC1	inactive: 8.84%
CC(C)(C)OC(=O)N1CCC(Nc2ccccc2)CC1	inactive: 5.79%
O=C(O)C1(Nc2ccccc2)CCN(Cc2ccccc2)CC1	inactive: -1.61%
NN(c1ccccc1)C1CCN(CCc2ccccc2)CC1	inactive: -5.7%
CCCOc1ccc(C(=O)NCC2(N(C)C)CCCCC2)cc1	inactive: 5.51%
O=c1[nH]c2ccccc2n1C1CCN(C(c2cc3ccccc3o2)c2nnnn2C2CCCC2)CC1 (stereo not drawn)	inactive: 1.69%
COc1cc(OC)cc(C(=O)NCC2(N3CCOCC3)CCCCC2)c1	inactive: 1.18%
COc1cccc(C(c2nnnn2C2CCCC2)N2CCC(n3c(=O)[nH]c4ccccc43)CC2)c1OC (stereo not drawn)	inactive: 7.47%
COc1cccc(C(=O)N(c2cc(C)cc(C)c2)C2CCN(C(=O)OC(C)(C)C)CC2)c1	inactive: -3.38%

Compound	inhibition
CCC(CO)(C(=O)OC1CN2CCC1CC2)c1ccccc1 (stereo not drawn)	inactive: -10.3%
CN1CCC(Nc2ccc(Cl)cc2)CC1	inactive: -6.64%
COc1ccc(C(=O)NCC2(N3CCCCC3)CCCCC2)cc1	inactive: -6.43%
CCC(c1nnnn1C1CCCC1)N1CCC(n2c(=O)[nH]c3ccccc32)CC1 (stereo not drawn)	inactive: -0.84%
CC(C)(C)OC(=O)N1CCC(N(C(=O)c2ccccc2)c2ccc(F)cc2)CC1	inactive: 3.46%
COc1ccc(C(=O)NCC2(N3CCCCC3)CCCCC2)c(OC)c1OC	inactive: -1.74%
O=C(NCC1(N2CCCCC2)CCCCC1)c1ccc(=O)[nH]c1	inactive: 17.6%
CCCCn1nnnc1C(c1cccs1)N1CCC(n2c(=O)[nH]c3ccccc32)CC1 (stereo not drawn)	inactive: 4.51%
O=C(NCC1(N2CCCCC2)CCCCC1)c1cccs1	inactive: -0.87%
CCCCn1nnnc1C(CC)N1CCC(n2c(=O)[nH]c3ccccc32)CC1 (stereo not drawn)	inactive: 6.35%
CSc1ccccc1C(=O)NCC1(N2CCCCC2)CCCCC1	inactive: 3.36%
Cc1cccc(NC2(C#N)CCN(Cc3ccccc3)CC2)c1	inactive: -17.6%
O=c1[nH]c2ccccc2n1C1CCN(C(c2ccccc2OC(F)(F)F)c2nnnn2C2CCCCC2)CC1 (stereo not drawn)	inactive: 3.15%
O=C(NCC1(N2CCCCC2)CCCCC1)c1ccc(Cl)nc1	inactive: 0.33%
Cc1cc(C)cc(N(C(=O)c2ccccc2)C2CCN(C(=O)OC(C)(C)C)CC2)c1	inactive: -8.54%
O=C(NCC1(N2CCOCC2)CCCCC1)c1cc2ccccc2o1	inactive: 0.27%
O=C(OC1CN2CCC1CC2)C1c2ccccc2Oc2ccccc21 (stereo not drawn)	inactive: 2.22%
O=c1[nH]c2ccccc2n1C1CCN(C(c2cc3ccccc3o2)c2nnnn2C2CCCCC2)CC1 (stereo not drawn)	inactive: 8.99%
O=C(NCC1(N2CCCCC2)CCCCC1)c1ccc(Cl)s1	inactive: 3.38%
N#CC1(Nc2ccccc2)CCN(Cc2ccccc2)CC1	inactive: -4.49%
COc1ccc(Cl)cc1C(=O)NCC1(N2CCOCC2)CCCCC1	inactive: -12.5%

Compound	inhibition
CCOC(=O)N1CCC(Nc2ccc(OC)cc2)CC1	inactive: 8.17%
CCCCn1nnnc1C(c1ccc(OC)cc1)N1CCC(n2c(=O)[nH]c3ccccc32)CC1 (stereo not drawn)	inactive: -3.25%
CC(C)(C)n1nnnc1C(c1ccccc1)N1CCC(n2c(=O)[nH]c3ccccc32)CC1 (stereo not drawn)	inactive: 12.5%
O=C1CCN(Cc2ccccc2)CC1	inactive: 8.04%
CCOc1ccc(C)cc1CN(CCCl)CCCl	inactive: 2.09%
O=C(NCC1(N2CCCCC2)CCCCC1)c1ccc(F)cc1	inactive: -7%
CCCCn1nnnc1C(c1cc2ccccc2o1)N1CCC(n2c(=O)[nH]c3ccccc32)CC1 (stereo not drawn)	inactive: -15.1%
O=P1(N(CCCl)CCCl)SCCCS1	inactive: 10.8%
CCCCOc1ccc(C(=O)NCC2(N3CCOCC3)CCCCC2)cc1	inactive: 3.27%
COc1ccc(NC2CCN(CCc3ccccc3)CC2)c(OC)c1	inactive: -10%
CCOC(=O)N1CCC(Nc2ccc(F)cc2)CC1	inactive: -1.94%
O=c1[nH]c2ccccc2n1C1CCN(C(c2ccccc2)c2nnnn2C2CCCCC2)CC1 (stereo not drawn)	inactive: 18.2%
COc1cc(C(=O)NCC2(N(C)C)CCCCC2)ccc1OC(F)F	inactive: 15.2%
CCOC(=O)N1CCC(Nc2cccc(C)c2)CC1	inactive: -11.6%
O=c1[nH]c2ccccc2n1C1CCN(C(c2cccc3ccccc23)c2nnnn2C2CCCC2)CC1 (stereo not drawn)	inactive: -8.17%
CC(C)(C)n1nnnc1C(c1ccccc1OC(F)(F)F)N1CCC(n2c(=O)[nH]c3ccccc32)CC1 (stereo not drawn)	inactive: -0.1%
O=C(NCC1(N2CCCCC2)CCCCC1)c1ccc(OC(F)F)cc1	inactive: 21.3%
CCN1CCC(Nc2ccc(Cl)cc2)CC1	inactive: 4.03%
N#CC1(Nc2ccccc2)CCN(CCc2ccccc2)CC1	inactive: 12.2%
O=c1[nH]c2ccccc2n1C1CCN(C(c2ccccc2OC(F)(F)F)c2nnnn2C2CCCC2)CC1 (stereo not drawn)	inactive: -3.49%
O=C(NCC1(N2CCCCC2)CCCCC1)c1cccc([N+](=O)[O-])c1	inactive: 5.3%

Compound	inhibition
CSc1ccc(C(=O)NCC2(N3CCOCC3)CCCCC2)cc1	inactive: -1.15%
O=C(NCC1(N2CCCCC2)CCCCC1)c1cccc(C(F)(F)F)c1	inactive: -1.32%
COc1cc(C(=O)NCC2(N3CCCCC3)CCCCC2)ccc1OC(F)F	inactive: -4%
O=C(NCC1(N2CCOCC2)CCCCC1)c1cc(=O)[nH]c2ccccc12	inactive: 10.5%
CCCCn1nnnc1C(c1cccc2ccccc12)N1CCC(n2c(=O)[nH]c3ccccc32)CC1 (stereo not drawn)	inactive: -10%
CN1CCN(CCOC(=O)C(O)(c2ccccc2)c2ccccc2)CC1	inactive: -6%
CC(C)c1ccc(C(=O)NCC2(N3CCOCC3)CCCCC2)cc1	inactive: -0.29%
COc1ccc(NC2CCN(C(=O)OC(C)(C)C)CC2)cc1	inactive: -2.15%
CC(C)c1ccc(NC2CCN(C(=O)OC(C)(C)C)CC2)cc1	inactive: -0.89%
COc1ccc(CN(CCCl)CCCl)cc1Cl	inactive: -0.71%
CN(C)c1cccc(C(=O)NCC2(N3CCCCC3)CCCCC2)c1	inactive: 14.6%
COc1cc(OC)c(C(=O)NCC2(N(C)C)CCCCC2)cc1OC	inactive: 3.9%
CCC(c1nnnn1C(C)(C)C)N1CCC(n2c(=O)[nH]c3ccccc32)CC1 (stereo not drawn)	inactive: 2.13%
O=C(NCC1(N2CCOCC2)CCCCC1)c1cc(F)c(F)cc1Cl	inactive: 2.58%
CCCCn1nnnc1C(c1ccnc2ccccc12)N1CCC(n2c(=O)[nH]c3ccccc32)CC1 (stereo not drawn)	inactive: 1.66%
O=C(NCC1(N2CCCCC2)CCCCC1)c1cncc(Br)c1	inactive: -0.34%
CN1CCC(Nc2cccc(F)c2)CC1	inactive: 15.6%
COc1ccc(C(c2nnnn2C2CCCC2)N2CCC(n3c(=O)[nH]c4ccccc43)CC2)cc1 (stereo not drawn)	inactive: 15.6%
Cc1ccc(C(=O)NCC2(N(C)C)CCCCC2)o1	inactive: -3.16%
CCCOc1ccc(C(=O)NCC2(N(C)C)CCCCC2)cc1OC	inactive: 4.54%
